Test results: patent US10456407B2, “Combination therapy for treating cancer” (Epizyme, Inc., priority 2015, dated 2019)

System: DOHH2 cells
Experiment: RT2 Glucocorticoid signaling PCR array, DOHH2 cell line (Table 4b)
Format: cell-based
Conditions: DOHH2, 4 days, vs DMSO

C[C@]12C=CC(=O)C=C1CC[C@@H]1[C@@H]2[C@@H](O)C[C@@]2(C)[C@H]1CC[C@]2(O)C(=O)CO [Prednisolone, prednisolone]
ADARB1 Fold Change: 0.274 | AFF1 Fold Change: 1.481 | AK2 Fold Change: 0.964 | AMPD3 Fold Change: 0.418 | ANGPTL4 Fold Change: 0.693 | ANXA4 Fold Change: 0.809 | ARID68 Fold Change: 0.914 | ASPH Fold Change: 0.695 | ATF4 Fold Change: 0.822 | BCL6 Fold Change: 0.759 | BMPER Fold Change: 0.362 | CEBPA Fold Change: 5.067 | CEBPB Fold Change: 0.692 | COL4A2 Fold Change: 0.009 | CREB1 Fold Change: 0.943 | CREB3 Fold Change: 0.959 | CREB3L4 Fold Change: 0.792 | CTGF Fold Change: 0.906 | CYB561 Fold Change: 0.265 | DDIT4 Fold Change: 0.815 | DUSP1 Fold Change: 0.765 | EDN1 Fold Change: 0.449 | EHD3 Fold Change: 2.132 | ERRFI1 Fold Change: 0.850 | FK8PS Fold Change: 1.929 | FOSL2 Fold Change: 1.071 | GDPD1 Fold Change: 0.718 | GHRHR Fold Change: 2.759 | GLUL Fold Change: 2.702 | GOT1 Fold Change: 0.853 | H6PD Fold Change: 0.770 | HNRPLL Fold Change: 0.118 | KLF9 Fold Change: 1.013 | KLF13 Fold Change: 1.214 | LOX Fold Change: 0.607 | MERTK Fold Change: 0.986 | NFKBIA Fold Change: 0.957 | NR3C1 Fold Change: 0.803 | PDCD7 Fold Change: 0.986 | PDP1 Fold Change: 1.040 | PER1 Fold Change: 0.799 | PER2 Fold Change: 1.282 | PIK3R1 Fold Change: 1.150 | PLD1 Fold Change: 0.866 | PLEKHF1 Fold Change: 1.272 | POU2F1 Fold Change: 0.760 | POU2F2 Fold Change: 0.904 | RASA3 Fold Change: 0.584 | RGS2 Fold Change: 0.555 | RHOB Fold Change: 0.648 | SESN1 Fold Change: 2.398 | SGK1 Fold Change: 0.230 | SLC10A6 Fold Change: 0.284 | SLC19A2 Fold Change: 1.014 | SLC22A5 Fold Change: 0.638 | SNTA1 Fold Change: 0.631 | SPHK1 Fold Change: 1.496 | SPSB1 Fold Change: 1.053 | STAT5A Fold Change: 2.270 | STAT5B Fold Change: 0.839 | TBL1XR1 Fold Change: 0.978 | TNF Fold Change: 0.593 | TSC22D3 Fold Change: 3.343 | USP2 Fold Change: 1.393 | USPS4 Fold Change: 0.865 | VDR Fold Change: 1.351 | VLDLR Fold Change: 0.343 | ZFP36 Fold Change: 0.856 | ZHX3 Fold Change: 1.577 | ZNF281 Fold Change: 1.081
